Measurements reported in patent US8378093B2, “Explosives detection markers” (dated 2013).
Only a part of the results on these compounds is given; other tests are left out.

Columns and labels:
[1] = Color change and charge-transfer absorption on complexation of guests with tetra-TTF calix[4]pyrrole 2a; details: for color of solution on mixing guest with 2a: in either CH2Cl2 or CHCl3; for absorption band centered at λ in the UV-vis spectrum / color change: 2 equiv of guest added to CH2Cl2 solution of 2a
[2] = Binding constants between tetra-TTF calix[4]pyrrole 2a and nitrated aromatic guests by 1H NMR spectroscopic titration; details: guest binding to 2a, CDCl3, 298 K, 1:2 complexation, estimated errors <15%

SMILES | color of solution on mixing guest with 2a [1] | Ka^1 [2] [M⁻¹] | Ka^2 [2] [M⁻¹] | absorption band centered at λ in the UV-vis spectrum [1] [nm] | color change [1] | color change in the solid state upon complexation ([1]; solid state, FIG. 4)
Cc1c([N+](=O)[O-])cccc1[N+](=O)[O-] | green | 14 | 37 | – | – | –
O=[N+]([O-])c1cc([N+](=O)[O-])cc([N+](=O)[O-])c1 | green | 20 | 900 | 677 | yellow to green | yellow to black
Cc1ccc([N+](=O)[O-])cc1[N+](=O)[O-] | green | 25 | 49 | – | – | –
Cc1c([N+](=O)[O-])cc([N+](=O)[O-])cc1[N+](=O)[O-] | green | 25 | 132 | 625 | yellow to green | –
